“And” between values parts separate entries of the source, which are not always exact repeats. Equal entries are not always repeated.

Protein sequences, listed by entry. Tags and fused reporters are not part of them. Lines headed by an entry give the natural chain unless they say otherwise; changes in a name come on top.
UniProt P35991: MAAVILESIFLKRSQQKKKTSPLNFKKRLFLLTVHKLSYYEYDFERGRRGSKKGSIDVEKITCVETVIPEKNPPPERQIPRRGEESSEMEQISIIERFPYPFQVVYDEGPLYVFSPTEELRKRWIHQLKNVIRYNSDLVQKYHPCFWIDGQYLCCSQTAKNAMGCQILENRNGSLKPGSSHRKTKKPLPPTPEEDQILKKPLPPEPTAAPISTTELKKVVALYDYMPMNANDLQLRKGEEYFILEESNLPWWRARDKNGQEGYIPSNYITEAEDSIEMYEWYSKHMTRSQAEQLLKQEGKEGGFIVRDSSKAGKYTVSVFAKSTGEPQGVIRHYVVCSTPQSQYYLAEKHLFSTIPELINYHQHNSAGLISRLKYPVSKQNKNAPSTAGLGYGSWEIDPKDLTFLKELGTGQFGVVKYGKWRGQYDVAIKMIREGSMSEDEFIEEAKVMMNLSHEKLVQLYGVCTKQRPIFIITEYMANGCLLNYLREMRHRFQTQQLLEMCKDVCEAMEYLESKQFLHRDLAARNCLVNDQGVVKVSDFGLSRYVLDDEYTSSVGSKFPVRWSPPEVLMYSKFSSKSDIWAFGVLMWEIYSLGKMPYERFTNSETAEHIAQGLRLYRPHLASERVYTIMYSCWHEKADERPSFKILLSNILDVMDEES

This assay concerns the target recombinant BTK expressed in a baculovirus vector expression system (Mus musculus, UniProt P35991). Kind of assay: biochemical.

For the molecule `C/C(O)=C(\C#N)C(=O)Nc1cc(Br)ccc1Br` [LFM-A13, α-Cyano-β-hydroxy-β-methyl-N-(2,5-dibromophenyl)-propenamide], the IC50 (commonly the point on the concentration scale where inhibition reaches its midpoint) was 2.5 µM and ~2.5 µM.

Values taken from patent US6753348B2, “BTK inhibitors and methods for their identification and use” (Parker Hughes Institute, priority 1998, dated 2004).
